According to patent publication US11426395B2, “PSMA inhibitor derivatives for labelling with 99mTc via HYNIC, a radiopharmaceutical kit, radiopharmaceutical preparations and their use in prostate cancer diagnostics” (Narodowe Centrum Badan Jadrowych, Osrodek Radioizotopow …, priority 2019, dated 2022):

Experiment: Solubility according to Ph. Eur.

Benzenesulfonic acid hydrazone of PSMA-T4
Solubility according to Ph. Eur. (ethanol): ethanol: soluble
Solubility according to Ph. Eur. (pH 7.4 phosphate buffer): soluble
Solubility according to Ph. Eur. (water): water: soluble
